Literature values, collected in patent publication US9700485B2, “Delamination resistant pharmaceutical glass containers containing active pharmaceutical ingredients” (Corning Incorporated, priority 2013, dated 2017).

Test system: DiFi cells
Conditions: cited from earlier work

For “IMC-C225: anti-EGFR antibody used for comparison”, the ADCC activity is given as “mediate cell death via activation of the Antibody Dependent Cellular Cytotoxicity”.
